In patent US20040023264A1, “Method for determining the peptide hormone activities or the steroid hormone activities of a material or substance mixture” (priority 2000, published 2004):

Biological target: T1, glucocorticoid receptor (Rattus norvegicus, UniProt P06536)
T1 sequence (P06536 1-795): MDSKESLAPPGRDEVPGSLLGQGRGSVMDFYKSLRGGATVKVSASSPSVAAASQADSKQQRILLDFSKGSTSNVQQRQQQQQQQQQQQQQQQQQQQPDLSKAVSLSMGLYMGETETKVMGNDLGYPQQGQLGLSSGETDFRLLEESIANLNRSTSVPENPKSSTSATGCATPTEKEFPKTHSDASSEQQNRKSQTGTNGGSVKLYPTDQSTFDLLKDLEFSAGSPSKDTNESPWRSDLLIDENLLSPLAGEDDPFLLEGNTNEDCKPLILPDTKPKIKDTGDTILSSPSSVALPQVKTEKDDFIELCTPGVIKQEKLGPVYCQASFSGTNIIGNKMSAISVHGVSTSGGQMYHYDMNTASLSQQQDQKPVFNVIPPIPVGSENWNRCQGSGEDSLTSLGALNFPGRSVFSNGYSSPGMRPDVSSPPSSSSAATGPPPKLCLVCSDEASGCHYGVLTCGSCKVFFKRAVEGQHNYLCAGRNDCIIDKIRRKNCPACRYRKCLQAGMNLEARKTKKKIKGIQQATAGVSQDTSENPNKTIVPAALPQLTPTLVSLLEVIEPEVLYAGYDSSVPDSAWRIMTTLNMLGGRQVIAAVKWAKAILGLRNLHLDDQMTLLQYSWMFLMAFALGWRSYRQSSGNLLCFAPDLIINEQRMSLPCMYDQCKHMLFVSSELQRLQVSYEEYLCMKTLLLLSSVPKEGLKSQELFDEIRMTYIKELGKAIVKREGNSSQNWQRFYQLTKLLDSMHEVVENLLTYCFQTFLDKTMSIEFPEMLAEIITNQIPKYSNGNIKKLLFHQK
Test: Glucocorticoid activity bioassay, CC1 cells cotransfected with GRE2-TATA-Luc and glucocorticoid receptor expression plasmid
Type: cell-based
Set-up: expressed in transfected cells; host or cells: CC1 cells (permanent rat liver cell line), transiently cotransfected with pSTC-rGR and GRE2-TATA-Luc
Description: These cell lines contain endogenous glucocorticoid receptors. Here, steroid concentration—in this case corticosterone concentration—determines the extent of glucocorticoid activity. […] Induction time: 24 h (see also example 12).
Thus, the following examples always concern transit ntly cotransfected CC1or MH 3924 cell.

“6α-Methyl-17α-hydroxy-progesterone [medroxyprogesterone]” was tested, and the “glucocorticoid activity (luciferase induction)” value (different concentrations, induction time 24 h) was “very active” and the “glucocorticoid activity of synthetic gestagen” value (induction times of 10 to 30 min also sufficient) was “glucocorticoid activity of this material was detected”.
